# Values quoted from earlier work in PubChem BioAssay AID1811 (Shanghai Institute of Organic Chemistry, 2009).
# The other results are listed elsewhere or left out. Active and inactive are the calls of the source. Unless stated, no cut-off for active and inactive is given here.
# System: thymidylate kinase
# Experiment: PubChem AID 1811
# Conditions: PDB complex binding affinities from literature
structure (smiles),measurement,value
Cc1cn([C@H]2C[C@H](O)[C@@H](CO)O2)c(=O)[nH]c1=O,outcome,active
